# Antibody variant affinities, Ab-14 heavy chain, assay 1

The measurements come from Engelhart et al. 2022 (doi:10.1038/s41597-022-01779-4) through the FLAb antibody collection.

All variants were tested on one target, the spike HR2 peptide PDVDLGDISGINAS (SARS-CoV-2).

Parent: Ab-14, a human scFv built as VH, three GGGGS repeats, VL. Only the CDRs of the heavy chain vary.
VH: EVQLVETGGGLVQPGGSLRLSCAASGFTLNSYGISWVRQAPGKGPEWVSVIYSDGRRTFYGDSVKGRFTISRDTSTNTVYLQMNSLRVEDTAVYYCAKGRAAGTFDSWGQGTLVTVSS
VL: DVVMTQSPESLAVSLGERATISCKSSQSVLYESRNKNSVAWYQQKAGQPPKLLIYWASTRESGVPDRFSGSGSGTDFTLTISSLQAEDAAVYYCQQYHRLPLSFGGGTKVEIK

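Library AAYL49 holds single substitutions and randomly drawn double and triple substitutions in the CDRs. Affinity was read by AlphaSeq, a pooled yeast mating assay with surface-displayed partners. After mating in shaken culture at 30 °C for 16 h, diploids were selected and their barcode pairs sequenced. Read counts were normalised to the haploid input and turned into Kd by a linear fit to BCL2-family pairs of known affinity, for each replicate. There are three technical replicates.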

Positions count from residue 1 of the parent VH; I34R puts R in place of I.
Values are apparent Kd, the geometric mean of the replicates that gave a signal; lower means stronger binding.
Where no diploid with the target was found in any replicate, the entry reads "nd": below detection, most likely a poor binder, though not proof of it.

| changes | Kd | detected | signal with controls |
|---|---|---|---|
| I34R/S53T/G103C | 400 nM | 2/3 | 0/9 |
| Y52V/G99V/A101T | nd | 0/3 | 0/9 |
| S35R/S63I/S107W | nd | 0/3 | 1/9 |
| R57Y/F59Q/S107D | nd | 0/3 | 0/9 |
| N30D/S35N | 8.6 nM | 3/3 | 1/9 |
| T58I/Y60T/A101V | 350 nM | 3/3 | 0/9 |
| Y32T/I34F/A101L | nd | 0/3 | 1/9 |
| G33M/A101M | nd | 0/3 | 1/9 |
| G99C/A102E | nd | 0/3 | 2/9 |
| G55L/F105G | 1.5 µM | 1/3 | 0/9 |
| Y32K/R57N/A101R | 14 µM | 1/3 | 0/9 |
| R56I/F59R/D106I | 33 nM | 3/3 | 1/9 |
| N30G/G103H/F105E | 63 µM | 3/3 | 4/9 |
| S31W/Y60T/K65E | nd | 0/3 | 0/9 |
| R57K/S63E | 260 nM | 3/3 | 7/9 |
| A102S/T104F/F105S | 12 µM | 1/3 | 3/9 |
| I51Y/V64G | 1.8 µM | 1/3 | 2/9 |
| F27T/S53D/S107H | 3.5 µM | 1/3 | 2/9 |
| Y52C/R56W/T58D | 520 µM | 1/3 | 5/9 |
| S31F/D54T/G61E | nd | 0/3 | 2/9 |
| F27L/Y52N/S63T | nd | 0/3 | 0/9 |
| T58Y/G61H/V64M | nd | 0/3 | 0/9 |
| S31R/G61Y/K65N | 5.8 µM | 2/3 | 2/9 |
| L29A/T58W | 1.1 µM | 1/3 | 1/9 |
| D62N/S107P | 1.1 µM | 1/3 | 0/9 |
| F27Q/N30R/V64I | 9.0 µM | 3/3 | 0/9 |
| F59G/G61T/K65G | 310 nM | 3/3 | 0/9 |
| D54E/F59V/Y60Q | nd | 0/3 | 2/9 |
| N30Y/G61D/D62A | 53 nM | 3/3 | 4/9 |
| L29P/R100K/A102T | nd | 0/3 | 0/9 |
| S53E/R56C/S63I | 1.8 µM | 1/3 | 2/9 |
| G26Y/G33R/F105Q | 78 µM | 1/3 | 1/9 |
| V50R/R56P/A101I | nd | 0/3 | 2/9 |
| S53G/G61N/S107F | nd | 0/3 | 0/9 |
| I34V/I51V/T58K | 1.5 µM | 3/3 | 2/9 |
| F59I/S63Q/A101E | 8.6 nM | 3/3 | 1/9 |
| S35D/T58K/F105V | nd | 0/3 | 1/9 |
| S35W/F59Q/Y60D | nd | 0/3 | 0/9 |
| G26W/S63I | nd | 0/3 | 0/9 |
| S53Y/V64G | nd | 0/3 | 0/9 |
| G55C/D62F/G103V | 360 nM | 1/3 | 0/9 |
| F27D/T104I | nd | 0/3 | 0/9 |
| L29V/N30T/F105N | 15 µM | 3/3 | 3/9 |
| V50Q/F59Q | nd | 0/3 | 0/9 |
| D54G/R56H/G103L | 24 µM | 1/3 | 2/9 |
| S35Y/G55Q | nd | 0/3 | 1/9 |
| G33T/Y60D/S63G | nd | 0/3 | 0/9 |

The opening 5 entries, copied out:

{"changes": "I34R/S53T/G103C", "Kd": "400 nM", "detected": "2/3", "signal with controls": "0/9"}
{"changes": "Y52V/G99V/A101T", "Kd": "nd", "detected": "0/3", "signal with controls": "0/9"}
{"changes": "S35R/S63I/S107W", "Kd": "nd", "detected": "0/3", "signal with controls": "1/9"}
{"changes": "R57Y/F59Q/S107D", "Kd": "nd", "detected": "0/3", "signal with controls": "0/9"}
{"changes": "N30D/S35N", "Kd": "8.6 nM", "detected": "3/3", "signal with controls": "1/9"}

As a blank, each scFv also met three strains without target: over library AAYL49, 15% of these pairings were detected, typically at 11 µM and seldom below 680 nM. Also given: how often the same scFv was detected with the empty control strains.
For reference, the parent read 4.4 nM as the reference entry and 13 µM (one replicate of three) as a member of this library.